This note sets out measurements from ChEMBL document CHEMBL5356978, “Design, synthesis, and biological evaluation of novel 8-substituted quercetin derivatives targeting the β‑catenin/B-cell lymphoma 9 interaction” (Bioorg Med Chem Lett, 2024).

Protein sequences, listed by entry. Tags and fused reporters are not part of them.
UniProt P35222, whole entry: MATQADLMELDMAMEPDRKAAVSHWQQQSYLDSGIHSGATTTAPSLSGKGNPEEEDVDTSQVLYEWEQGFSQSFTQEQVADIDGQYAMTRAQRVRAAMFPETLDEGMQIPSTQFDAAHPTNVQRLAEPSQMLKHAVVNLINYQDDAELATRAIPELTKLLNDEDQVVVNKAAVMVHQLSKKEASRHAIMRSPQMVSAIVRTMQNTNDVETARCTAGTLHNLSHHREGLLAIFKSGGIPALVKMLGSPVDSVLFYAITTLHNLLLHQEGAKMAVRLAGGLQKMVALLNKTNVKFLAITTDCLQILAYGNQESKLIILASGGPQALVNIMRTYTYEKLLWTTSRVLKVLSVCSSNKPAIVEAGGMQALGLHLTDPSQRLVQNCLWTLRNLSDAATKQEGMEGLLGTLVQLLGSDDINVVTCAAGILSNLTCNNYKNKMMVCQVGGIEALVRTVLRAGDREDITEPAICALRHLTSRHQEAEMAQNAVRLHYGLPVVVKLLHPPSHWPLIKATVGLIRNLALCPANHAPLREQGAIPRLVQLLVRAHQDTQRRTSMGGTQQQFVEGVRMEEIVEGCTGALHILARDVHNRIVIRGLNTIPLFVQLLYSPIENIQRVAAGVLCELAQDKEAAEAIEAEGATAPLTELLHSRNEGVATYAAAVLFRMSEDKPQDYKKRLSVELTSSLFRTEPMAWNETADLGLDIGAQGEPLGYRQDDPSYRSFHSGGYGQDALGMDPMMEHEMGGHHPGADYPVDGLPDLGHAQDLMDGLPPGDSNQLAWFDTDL

The target in this experiment is Catenin beta-1 (Homo sapiens, UniProt P35222). The experiment is described as follows: Binding affinity to full length beta-catenin (unknown origin) assessed as dissociation constant by SPR analysis.

With `O=c1c(O)c(-c2ccc(O)c(O)c2)oc2cc(O)cc(O)c12` [QUERCETIN], the dissociation constant Kd came to 4.99 µM.
